The values that follow come from ChEMBL document CHEMBL6114984, “Discovery of 2,4-diaminopyrimidine derivatives as potent inhibitors of FAK capable of activating the Hippo pathway for the treatment of esophageal squamous cell carcinoma” (Eur J Med Chem, 2025).

One assay deals with KYSE-450. As to the kind of experiment: Induction of cell senescence in human KYSE-450 cells at 400 nmol/L. The format is functional, cell-based.
A further assay has as its system KYSE-30. The experiment in a line: Induction of cell senescence in human KYSE-30 cells at 400 nmol/L. The assay is classed as functional, cell-based.

The structures appear in SMILES notation. Calls of active or inactive are those of the source. No cut-off for these calls is given here.

For `CNC(=O)c1ccccc1Nc1nc(Nc2ccc(N3CCOCC3)cc2OC)ncc1Cl`, the result in the assay on KYSE-450 and in the assay with KYSE-30 was inactive.
